The record followed here is US9067888B2, “Inhibitors of protein kinases” (Ingenium Pharmaceuticals GmbH, priority 2010, dated 2015).

Chains of the proteins cited; added tags and fusions are not shown.
UniProt P50750, whole entry: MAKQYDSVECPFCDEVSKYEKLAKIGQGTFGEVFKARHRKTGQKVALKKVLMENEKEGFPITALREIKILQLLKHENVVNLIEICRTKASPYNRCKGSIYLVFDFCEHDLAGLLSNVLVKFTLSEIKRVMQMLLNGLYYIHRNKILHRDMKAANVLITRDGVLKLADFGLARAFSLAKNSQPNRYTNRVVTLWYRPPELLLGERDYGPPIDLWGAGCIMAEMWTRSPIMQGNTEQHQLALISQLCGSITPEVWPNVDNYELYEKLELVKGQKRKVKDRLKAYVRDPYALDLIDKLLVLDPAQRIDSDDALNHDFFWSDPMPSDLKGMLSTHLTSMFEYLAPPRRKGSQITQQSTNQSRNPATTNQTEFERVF

The assay deals with CDK9/CycT (Homo sapiens (Human), UniProt P50750). Description: Kinase activity assay IC50 profile. The assay is classed as biochemical. As to conditions: read-out: IC50 CDK9/T1. The method, then: In vitro kinase assay analysis may be performed using standard techniques described in the art. These techniques are also used by commercial services providers in order to offer in vitro kinase activity assay services, e.g. the assays offered by Millipore Inc. (worldwide website www(dot)millipore.com), ProQinase GmbH (worldwide website www(dot)proqinase.de) and others.
On the day of the kinase inhibition assay, 451 μl H2O were added to each well of a set of compound dilution plates. To minimize precipitation, the H2O was added to the plates only a few minutes before the transfer of the compound solutions into the assay plates. The plates were shaken thoroughly, resulting in “compound dilution plates/10%/DMSO” with a concentration of 1×10^−03 M/10% DMSO to 3×10^−08 M/10% DMSO in semilog steps. These plates were used for the transfer of 5 μl compound solution into the “assay plates”. The compound dilution plates were discarded at the end of the working day. For the assays (see below), 5 μl solution from each well of the compound dilution plates were transferred into the assay plates. The final volume of the assay was 50 μl. […]
The median value of the counts in column 1 (n=8) of each assay plate was defined as “low control”. This value reflects unspecific binding of radioactivity to the plate in the absence of a protein kinase but in the presence of the substrate. […]

On to `COc1cc(F)ccc1-c1ccnc(NC(=O)[C@H]2CCC[C@@H](NC(C)=O)C2)c1` (relative stereo) [Example 33, cis-3-Acetamido-N-(4-(4-fluoro-2-methoxyphenyl)pyridin-2-yl)cyclo-hexanecarboxamide], for which the IC50 is 3 nM.
